Usually kcat stands for the number of substrate molecules converted per active site and unit of time at saturation.

kcat data for one protein are collected here from ChEMBL document CHEMBL1156686, “Xanthine oxidase-activated prodrugs of thymidine phosphorylase inhibitors” (Eur J Med Chem, 2008).

Substrate in the data set: Cc1cn([C@H]2C[C@H](O)[C@@H](CO)O2)c(=O)[nH]c1=O
The data set is described as follows: Activity of Escherichia coli thymidine phosphorylase. Summed up: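 Recombinant E. coli TP (0.00883 U per 0.2 ml) added to start a continuous spectrophotometric assay. Mix: 0.13 mM 5-nitro-2'-deoxyuridine substrate in 0.1 M potassium phosphate, pH 7.4, 25 °C, read at 355 nm in a microplate. Initial velocity compared with the mean of at least two no-inhibitor controls. Where derived, IC50 used at least five concentrations spanning the value.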

B1: Thymidine phosphorylase (Escherichia coli K-12), P07650 (protein)
chain: MFLAQEIIRKKRDGHALSDEEIRFFINGIRDNTISEGQIAALAMTIFFHDMTMPERVSLTMAMRDSGTVLDWKSLHLNGPIVDKHSTGGVGDVTSLMLGPMVAACGGYIPMISGRGLGHTGGTLDKLESIPGFDIFPDDNRFREIIKDVGVAIIGQTSSLAPADKRFYATRDITATVDSIPLITASILAKKLAEGLDALVMDVKVGSGAFMPTYELSEALAEAIVGVANGAGVRTTALLTDMNQVLASSAGNAVEVREAVQFLTGEYRNPRLFDVTMALCVEMLISGKLAKDDAEARAKLQAVLDNGKAAEVFGRMVAAQKGPTDFVENYAKYLPTAMLTKAVYADTEGFVSEMDTRALGMAVVAMGGGRRQASDTIDYSVGFTDMARLGDQVDGQRPLAVIHAKDENNWQEAAKAVKAAIKLADKAPESTPTVYRRISE
For B1, the kcat is 1770 s⁻¹.
